The record followed here is patent publication US20040253214A1.

The target in this test is human EGF receptor on HT1080 cells (human) (UniProt P00533). Nature of the test: cell-based or functional assay.

The substance “EXGaLVMoT chimeric envelope (EGF displayed through a factor Xa-cleavable linker as an N-terminal extension of the Gibbon Ape Leukaemia virus SU glycoprotein), on retroviral vector particles (from UniProt P01133 971-1023; P21415 43-653; P03385 633-665)” came in with a Titre of GaLV vectors on EGF-R positive cells, HT1080, +Xa (displayed EGF domain cleaved with factor Xa before infection) of 36000 efu/ml and a Titre of GaLV vectors on EGF-R positive cells, HT1080, -Xa of 3600 efu/ml.
